Test [1] has as its target T1, CB2 (Homo sapiens, UniProt P34972). In words: In-Cell western, ERK phosphorylation (Gαi/o) in HEK 293A cells transfected with hCB2. It counts as cell-based. Also on record: expressed in transfected cells. The conditions noted are these: 0.001-10 μM titrated compound, 10 min, with or without fixed co-ligand as in label; read-out: EC50 (nM) ± SEM, ERK (Gαi/o).
In test [2] the target is T1, CB2. In words: In-Cell western, PLCβ3 phosphorylation (Gαq) in HEK 293A cells transfected with hCB2. It counts as cell-based. Also on record: expressed in transfected cells. The conditions noted are these: 0.001-10 μM titrated compound, 10 min, with or without fixed co-ligand as in label; read-out: EC50 (nM) ± SEM, PLCβ3 (Gαq).

Sequences of proteins named here, by UniProt entry; tags and fusion partners are left off.
UniProt P34972, whole entry: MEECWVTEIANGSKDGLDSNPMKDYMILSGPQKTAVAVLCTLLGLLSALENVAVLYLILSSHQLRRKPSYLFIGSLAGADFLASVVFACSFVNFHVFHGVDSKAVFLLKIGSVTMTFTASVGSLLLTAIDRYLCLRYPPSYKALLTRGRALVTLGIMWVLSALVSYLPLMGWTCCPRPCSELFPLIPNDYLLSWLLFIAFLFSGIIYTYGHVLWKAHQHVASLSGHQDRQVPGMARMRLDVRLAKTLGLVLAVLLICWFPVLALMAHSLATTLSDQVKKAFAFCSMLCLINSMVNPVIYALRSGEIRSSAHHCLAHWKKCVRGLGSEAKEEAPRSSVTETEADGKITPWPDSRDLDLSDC

The text below walks through data of patent US9549906B2, “Compositions and methods for treatment of ocular inflammation and/or pain” (priority 2013, dated 2017).

Take `C=C(C)[C@@H]1CCC(C)=C[C@H]1c1c(O)cc(CCCCC)cc1O` [CBD, cannabidiol]: the EC50 worked out at 1290 ± 23 nM at CB2 [1] and 977.9 ± 7.8 nM at CB2 [2].
